This passage reports Ki results from paper PMC3754837 (Neuropharmacology, 2013).

By UniProt entry, the sequences of proteins in these tests, tags left out. Residues count along the entry.
UniProt P28335, 33-458: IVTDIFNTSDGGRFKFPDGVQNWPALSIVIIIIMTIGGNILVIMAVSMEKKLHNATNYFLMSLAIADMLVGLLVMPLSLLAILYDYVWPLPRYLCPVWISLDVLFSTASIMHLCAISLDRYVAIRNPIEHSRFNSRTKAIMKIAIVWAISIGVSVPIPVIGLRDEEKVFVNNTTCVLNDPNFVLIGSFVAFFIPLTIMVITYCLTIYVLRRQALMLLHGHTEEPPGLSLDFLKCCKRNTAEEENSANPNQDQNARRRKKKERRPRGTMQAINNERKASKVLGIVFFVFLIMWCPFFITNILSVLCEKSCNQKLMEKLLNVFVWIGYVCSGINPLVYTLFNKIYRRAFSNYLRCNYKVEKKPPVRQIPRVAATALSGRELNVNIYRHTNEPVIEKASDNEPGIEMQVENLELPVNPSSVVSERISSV

Assay [1] concerns the target T1, m5-HT2C (C57Bl/6 mouse 5-HT2C-VNV receptor) (Mus musculus, UniProt P34968, I157V/I161V).
T1 sequence (P34968 33-459 I157V/I161V): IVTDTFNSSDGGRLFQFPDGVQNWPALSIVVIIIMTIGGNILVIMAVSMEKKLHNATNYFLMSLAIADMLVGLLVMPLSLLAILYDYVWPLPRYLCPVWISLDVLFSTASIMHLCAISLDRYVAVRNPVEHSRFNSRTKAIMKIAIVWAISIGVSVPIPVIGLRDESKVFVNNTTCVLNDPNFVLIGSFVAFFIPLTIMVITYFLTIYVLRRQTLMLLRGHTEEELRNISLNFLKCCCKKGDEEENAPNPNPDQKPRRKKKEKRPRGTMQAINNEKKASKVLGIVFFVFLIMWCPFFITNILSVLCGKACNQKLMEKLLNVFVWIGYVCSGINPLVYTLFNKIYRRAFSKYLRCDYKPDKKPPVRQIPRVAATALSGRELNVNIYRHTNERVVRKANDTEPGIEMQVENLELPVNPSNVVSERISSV
The experiment in a line: [3H]-mesulergine competition, HEK-293 membranes. The assay is classed as binding.

The target in assay [2] is h5-HT2C (human 5-HT2C-INI receptor) (Homo sapiens, UniProt P28335). Put plainly: biochemical. The assay is classed as binding.

Structures are written as SMILES.

With `Cn1ccc2cc3c(cc21)CCN3C(=O)Nc1cccnc1` [SB-206553], the Ki (in general, a measure of affinity in units of concentration, obtained from inhibition or displacement) in assay [1] amounted to 3.2 nM; in assay [2], 3.1 nM.
